Measurements from patent publication US11634412B2, “3-phosphoglycerate dehydrogenase inhibitors and uses thereof” (Raze Therapeutics, Inc., priority 2016, dated 2023).

By UniProt entry, the sequences of proteins in these tests, tags left out.
UniProt O43175, whole entry: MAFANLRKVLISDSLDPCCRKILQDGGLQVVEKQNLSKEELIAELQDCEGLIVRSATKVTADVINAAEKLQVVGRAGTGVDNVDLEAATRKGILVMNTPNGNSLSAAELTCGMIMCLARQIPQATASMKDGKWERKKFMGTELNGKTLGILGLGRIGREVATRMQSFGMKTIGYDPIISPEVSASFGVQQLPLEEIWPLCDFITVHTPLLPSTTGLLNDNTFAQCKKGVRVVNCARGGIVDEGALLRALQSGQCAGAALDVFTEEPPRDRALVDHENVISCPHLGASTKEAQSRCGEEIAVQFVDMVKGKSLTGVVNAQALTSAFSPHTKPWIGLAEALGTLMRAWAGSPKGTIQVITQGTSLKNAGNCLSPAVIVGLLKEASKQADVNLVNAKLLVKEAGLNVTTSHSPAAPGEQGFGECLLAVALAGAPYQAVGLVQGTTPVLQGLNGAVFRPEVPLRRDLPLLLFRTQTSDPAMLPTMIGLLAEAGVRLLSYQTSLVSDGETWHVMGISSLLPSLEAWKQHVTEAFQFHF

Biological target: Full length (FL) 3-Phosphoglycerate Dehydrogenase (PHGDH) (Homo sapiens, UniProt O43175)
Assay: Full length (FL) PHGDH Diaphorase coupled assay (500 uM NAD)
Conditions: read-out: FL Diaphorase 500 μM NAD, full-length PHGDH 5 nM, 30° C. 60 minutes, resorufin fluorescence

IC50 [µM] | SMILES
0.001 to 1 | COc1ccc2c(cc(C(=O)NC3(c4ccc(C(C(=O)O)C(C)C)cc4)COC3)n2C)c1Cl (single isomer, unassigned)
0.001 to 1 | COc1ccc2c(cc(C(=O)NC3(c4ccc(C(C(=O)O)C5CCCC5)cc4)COC3)n2C)c1Cl (single isomer, unassigned)
